# pEC50, pKi: −log10 of the molar value.
# Biological target: Nociceptin receptor (Homo sapiens, UniProt P41146)
# Assay: In Vitro ORL-1 Receptor Binding Assay
compound,measurement,value
O=c1c(P(=O)(O)O)nc2ccccc2n1[C@H]1C[C@H]2CC[C@@H](C1)N2C12CC3CC(CC1C3)C2,pEC50,6.71
same,pKi,7.23
